Laboratory results published in patent CN101062949A.

Protein sequences, listed by entry. Tags and fused reporters are not part of them. Chains listed by the source or under a name are the forms on record and can include a tag or linker.
UniProt P01854, other isoform, or with tags, fused parts or gaps: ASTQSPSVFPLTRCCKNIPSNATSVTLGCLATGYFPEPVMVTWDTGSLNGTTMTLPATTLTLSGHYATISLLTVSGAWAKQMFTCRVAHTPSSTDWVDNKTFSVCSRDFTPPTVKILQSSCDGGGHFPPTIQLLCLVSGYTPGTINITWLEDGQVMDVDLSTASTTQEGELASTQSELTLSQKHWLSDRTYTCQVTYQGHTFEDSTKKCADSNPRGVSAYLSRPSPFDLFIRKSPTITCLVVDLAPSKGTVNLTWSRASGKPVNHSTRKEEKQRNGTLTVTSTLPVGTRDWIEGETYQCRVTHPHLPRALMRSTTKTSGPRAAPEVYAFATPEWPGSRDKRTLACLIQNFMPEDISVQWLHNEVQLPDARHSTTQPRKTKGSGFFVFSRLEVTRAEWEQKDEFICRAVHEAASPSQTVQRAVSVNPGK

Molecular target: 人IgE (细胞系CRL-8033分泌表达) (human) (UniProt P01854)
Experiment: cell-based or functional assay

- 加入Xolair后释放组胺浓度(ng/ml), 样品浓度0.25 μg/ml, 均数: 74.4 ng/mL
- 加入Xolair后释放组胺浓度(ng/ml), 样品浓度0.25 μg/ml, 孔1: 73.3 ng/mL
- 加入Xolair后释放组胺浓度(ng/ml), 样品浓度0.25 μg/ml, 孔2: 75.4 ng/mL
- 加入Xolair后释放组胺浓度(ng/ml), 样品浓度2.5 μg/ml, 均数: 69.4 ng/mL
- 加入Xolair后释放组胺浓度(ng/ml), 样品浓度2.5 μg/ml, 孔1: 68.6 ng/mL
- 加入Xolair后释放组胺浓度(ng/ml), 样品浓度2.5 μg/ml, 孔2: 70.1 ng/mL
- 加入Xolair后释放组胺浓度(ng/ml), 样品浓度25.00 μg/ml, 均数: 41.8 ng/mL
- 加入Xolair后释放组胺浓度(ng/ml), 样品浓度25.00 μg/ml, 孔1: 43.5 ng/mL
- 加入Xolair后释放组胺浓度(ng/ml), 样品浓度25.00 μg/ml, 孔2: 40.1 ng/mL
- 加入Xolair后释放组胺浓度(ng/ml), 样品浓度250.00 μg/ml, 均数: 12.5 ng/mL
- 加入Xolair后释放组胺浓度(ng/ml), 样品浓度250.00 μg/ml, 孔1: 13.2 ng/mL
- 加入Xolair后释放组胺浓度(ng/ml), 样品浓度250.00 μg/ml, 孔2: 11.7 ng/mL
- 加入Xolair后释放组胺浓度(ng/ml), 样品浓度2500.00 μg/ml, 均数: 11.9 ng/mL
- 加入Xolair后释放组胺浓度(ng/ml), 样品浓度2500.00 μg/ml, 孔1: 11.3 ng/mL
- 加入Xolair后释放组胺浓度(ng/ml), 样品浓度2500.00 μg/ml, 孔2: 12.5 ng/mL
Substance: Xolair (Omalizumab) (antibody)
